The record followed here is publication PMC8633983, “GTP binding to translation factor eIF2B stimulates its guanine nucleotide exchange activity” (iScience, 2021).

By UniProt entry, the sequences of proteins in these tests, tags left out.
UniProt P20459, whole entry, chain 1 of 3: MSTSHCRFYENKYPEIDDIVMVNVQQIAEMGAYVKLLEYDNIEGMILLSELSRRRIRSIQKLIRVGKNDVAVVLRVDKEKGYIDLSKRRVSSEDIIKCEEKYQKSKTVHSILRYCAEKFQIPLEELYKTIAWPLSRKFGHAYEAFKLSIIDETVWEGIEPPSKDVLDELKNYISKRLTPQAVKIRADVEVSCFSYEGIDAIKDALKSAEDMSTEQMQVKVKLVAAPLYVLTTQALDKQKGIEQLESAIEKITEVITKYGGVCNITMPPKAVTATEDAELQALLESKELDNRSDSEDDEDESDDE

The target of the assay is eIF2 (S. cerevisiae) (UniProt P20459).

In turn, “eIF2B (wild type, Flag-tagged eIF2Bγ), P14741 1-305; P32502 1-381; P09032 1-578; P12754 1-651; P32501 1-712” yielded a K1/2 (eIF2B concentration) of the release of BODIPY-GDP from eIF2 (GEF assay), eIF2B preincubated with unlabeled GTP of 4.2 nM and a K1/2 (eIF2B concentration) of the release of BODIPY-GDP from eIF2 (GEF assay), eIF2B without preincubated nucleotide of 5.5 nM.
